Test results reported in PubChem BioAssay (NCI).
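Values below derive from 48-hour exposures of cells grown in 96-well plates, with endpoints linearly interpolated between the two concentrations bracketing the appropriate inhibition level. GI50 marks 50% less growth.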

Columns and labels:
Assay in all cases: DTP human tumour cell line panel, 48 h; in the data active = GI50 below about 0.43 µM; inactive = the rest
786-0 renal = system: 786-0 renal
A498 renal = system: A498 renal
A549 NSCLC = system: A549 NSCLC
ACHN renal = system: ACHN renal
BT-549 breast = system: BT-549 breast
CAKI-1 renal = system: CAKI-1 renal
CCRF-CEM leukemia = system: CCRF-CEM leukemia
COLO 205 colon = system: COLO 205 colon
DU-145 prostate = system: DU-145 prostate
EKVX NSCLC = system: EKVX NSCLC
HCT-116 colon = system: HCT-116 colon
HCT-15 colon = system: HCT-15 colon
HOP-62 NSCLC = system: HOP-62 NSCLC
HOP-92 NSCLC = system: HOP-92 NSCLC
HT29 colon = system: HT29 colon
IGROV1 ovarian = system: IGROV1 ovarian
K-562 leukemia = system: K-562 leukemia
KM12 colon = system: KM12 colon
LOX IMVI melanoma = system: LOX IMVI melanoma
M14 melanoma = system: M14 melanoma
MALME-3M melanoma = system: MALME-3M melanoma
MCF7 breast = system: MCF7 breast
MDA-MB-231 breast = system: MDA-MB-231 breast
MDA-MB-435 = system: MDA-MB-435
MDA-N = system: MDA-N
MOLT-4 leukemia = system: MOLT-4 leukemia
NCI-H23 lung = system: NCI-H23 lung
NCI-H322M lung = system: NCI-H322M lung
NCI-H460 lung = system: NCI-H460 lung
NCI/ADR-RES ovarian = system: NCI/ADR-RES ovarian
OVCAR-3 ovarian = system: OVCAR-3 ovarian
OVCAR-4 ovarian = system: OVCAR-4 ovarian
OVCAR-5 ovarian = system: OVCAR-5 ovarian
OVCAR-8 ovarian = system: OVCAR-8 ovarian
PC-3 prostate = system: PC-3 prostate
RPMI-8226 leukemia = system: RPMI-8226 leukemia
RXF 393 renal = system: RXF 393 renal
SF-268 CNS = system: SF-268 CNS
SF-295 CNS = system: SF-295 CNS
SK-MEL-2 melanoma = system: SK-MEL-2 melanoma
SK-MEL-28 melanoma = system: SK-MEL-28 melanoma
SK-MEL-5 melanoma = system: SK-MEL-5 melanoma
SK-OV-3 ovarian = system: SK-OV-3 ovarian
SN12C renal = system: SN12C renal
SNB-19 CNS = system: SNB-19 CNS
SNB-75 CNS = system: SNB-75 CNS
SR leukemia = system: SR leukemia
SW-620 colon = system: SW-620 colon
T-47D breast = system: T-47D breast
TK-10 renal = system: TK-10 renal
U251 CNS = system: U251 CNS
UACC-257 melanoma = system: UACC-257 melanoma
UACC-62 melanoma = system: UACC-62 melanoma
UO-31 renal = system: UO-31 renal

Measured: GI50

CN(C(=O)COc1ccc(Cl)c(Cl)c1)C1CCCC[C@@H]1N1CCCC1 (some centres undefined)
inactive: 786-0 renal 73.9 µM | A498 renal 50.4 µM | A549 NSCLC 99.5 µM | ACHN renal > 100 µM | BT-549 breast 44.9 µM | CAKI-1 renal 69.2 µM | CCRF-CEM leukemia > 100 µM | COLO 205 colon 35.7 µM | DU-145 prostate > 100 µM | EKVX NSCLC > 100 µM | HCT-116 colon 62 µM | HCT-15 colon > 100 µM | HOP-62 NSCLC > 100 µM | HOP-92 NSCLC 37.6 µM | HT29 colon 36.2 µM | IGROV1 ovarian > 100 µM | K-562 leukemia 51.1 µM | KM12 colon > 100 µM | LOX IMVI melanoma 60.5 µM | M14 melanoma 16.4 µM | MALME-3M melanoma > 100 µM | MCF7 breast 50.5 µM | MDA-MB-231 breast 63.7 µM | MDA-MB-435 = > 100 µM | MDA-N 87.7 µM | MOLT-4 leukemia 31.8 µM | NCI-H23 lung > 100 µM | NCI-H322M lung > 100 µM | NCI-H460 lung 85.7 µM | NCI/ADR-RES ovarian 93.2 µM | OVCAR-3 ovarian > 100 µM | OVCAR-4 ovarian > 100 µM | OVCAR-5 ovarian 79.3 µM | OVCAR-8 ovarian > 100 µM | PC-3 prostate 43.7 µM | RPMI-8226 leukemia 46.8 µM | RXF 393 renal 43.3 µM | SF-268 CNS 45.5 µM | SF-295 CNS > 100 µM | SK-MEL-2 melanoma > 100 µM | SK-MEL-28 melanoma 77.5 µM | SK-MEL-5 melanoma 14.9 µM | SK-OV-3 ovarian > 100 µM | SN12C renal > 100 µM | SNB-19 CNS > 100 µM | SNB-75 CNS 57.7 µM | SR leukemia 64.5 µM | SW-620 colon > 100 µM | T-47D breast 50.8 µM | TK-10 renal > 100 µM | U251 CNS 73 µM | UACC-257 melanoma 57.7 µM | UACC-62 melanoma 43.5 µM | UO-31 renal 27.7 µM
